Measurements taken from patent US9273057B2 (Bristol-Myers Squibb Company, priority 2012, dated 2016).

The chains behind the UniProt entries cited, without tags or fusion partners.
UniProt P68400, whole entry, looked up: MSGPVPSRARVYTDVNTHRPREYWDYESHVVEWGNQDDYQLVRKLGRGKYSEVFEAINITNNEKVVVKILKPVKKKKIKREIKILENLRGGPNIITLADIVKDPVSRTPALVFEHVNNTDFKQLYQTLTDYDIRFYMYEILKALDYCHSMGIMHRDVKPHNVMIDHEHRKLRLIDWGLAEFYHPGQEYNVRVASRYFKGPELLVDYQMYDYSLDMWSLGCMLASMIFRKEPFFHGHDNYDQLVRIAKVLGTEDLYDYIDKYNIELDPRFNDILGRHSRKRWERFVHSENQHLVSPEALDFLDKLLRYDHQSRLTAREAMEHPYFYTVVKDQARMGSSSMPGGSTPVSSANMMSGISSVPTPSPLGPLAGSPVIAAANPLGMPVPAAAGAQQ

Target: CK2A1 (CK2α/β) (Homo sapiens, UniProt P68400)
Assay: CK2 kinase assay, CK2A1 (CK2α/β)
Assay type: biochemical
Details: read-out: CK2A1 (CK2α/β) (IC50); Table A

Row | SMILES | IC50 [nM]
1 | CCNc1nc(Nc2cc(C#N)cc(N3CC[C@@H](NC(=O)OC)[C@@H](O)C3)c2Cl)nn2c(C#N)cnc12 | 0.89
2 | CCNc1nc(Nc2cc(C#N)cc(N3CC[C@H](NC(=O)OC)[C@H](O)C3)c2Cl)nn2c(C#N)cnc12 | 0.57
3 | CCNc1nc(Nc2cc(C#N)cc(N3CC[C@H](NC(=O)OC)[C@@H](O)C3)c2Cl)nn2c(C#N)cnc12 (racemic) | 0.86
